Experimental data published in patent US20110130449.

Key:
[1] = tested on: SHSKNPKRSRSREHRR (peptide e)
[2] = tested on: ARTKQTARK(acetyl)STGGK(acetyl)A
[3] = tested on: NPKRSRSR(Me2sym))EHRRHRSR (peptide c)
[4] = tested on: SHSRSRSR(Me2sym)DRKRRSRS (peptide a)
[5] = tested on: ARTK(me3)QTARK(acetyl)STGGK(acetyl)A
[6] = tested on: SHSRSR(Me2sym)SRDRKRRSRS (peptide b)
[7] = tested on: NPKRSRSR(Me2asym)EHRRHRSR

Measured: activity (hydroxylation of the peptide by Jmjd6, MALDI-TOF MS)

N-terminally His6-tagged human Jmjd6 (residues 1-343)
double: NPKKSKSKEHRR | NPKKSKSKEHKK | NPKKSKSREHRR
double hydroxylation: [1]
moderate: NPKRSRSREHR
yes: NPKRSRSREHKK | NPKRSRSR(Me1)EHRRHRSR | ARTKQTARKSTGGKA | SHSKNPRRSRSREHRR | NPKRSRSREHRRH | NPKRSRSEHRRHRSR | NPKRSRSREHRR (peptide d) | NPKRSRSREHRRHR | NPKRSRSREHRRHRS | SHSRNPKRSRSREHRR | RDKENRHRKRSHSRSRS | NPKRSRSKEHKK | [3] | SHSRSRSRDRKRRSRS | [4] | NPKK(Me3)SRSREHRR | [6] | [7]
no: SRDRARRSR | ARTKQTARK(me3)STGGKA | NPR(me2aym)RSRSKEHKK | SRDRK(Me3)RRSR | RKR | KR | DRKRRSRSRDRR | RDRKRRS | NPKRSRSRE | DRKRRSRSRDRRNR | QLATKAARKSAPATG | NPKRS | SRDRKRRSR | DRKRR | SRSRDRKRRSRS | ARTKQTARK(me2)STGGKA | NPKRSRS | NPR(me2sym)RSRSKEHKK | SRSRSRDRKRRSRS | SRDRRRRSR | NPKRSRSREH | NPR(me1)RSRSKEHKK | SHSRNPRRSRSREHRR | [2] | HSRSRSRDRKRRSRS | RSRDRKRRSRS | [5] | PKR | ARTKQTARK(me1)STGGKA | NPKR | NPK(me3)RSRSKEHKK | RSRSRDRKRRSRS
+16: GSKKAVTKAQKKDSK | SGRGKQGGKARAKTR | SGR(me2asym)GKQGGKARAKTR | APAPKKGSKKAVTKA
